EC50 data for two compounds are collected here from PubChem BioAssay AID435010 (Broad Institute, 2010).

By UniProt entry, the sequences of proteins in these tests, tags left out. Where a name states a change or a piece, a line headed by the entry shows the natural chain unless it says otherwise.
UniProt P9WHJ3: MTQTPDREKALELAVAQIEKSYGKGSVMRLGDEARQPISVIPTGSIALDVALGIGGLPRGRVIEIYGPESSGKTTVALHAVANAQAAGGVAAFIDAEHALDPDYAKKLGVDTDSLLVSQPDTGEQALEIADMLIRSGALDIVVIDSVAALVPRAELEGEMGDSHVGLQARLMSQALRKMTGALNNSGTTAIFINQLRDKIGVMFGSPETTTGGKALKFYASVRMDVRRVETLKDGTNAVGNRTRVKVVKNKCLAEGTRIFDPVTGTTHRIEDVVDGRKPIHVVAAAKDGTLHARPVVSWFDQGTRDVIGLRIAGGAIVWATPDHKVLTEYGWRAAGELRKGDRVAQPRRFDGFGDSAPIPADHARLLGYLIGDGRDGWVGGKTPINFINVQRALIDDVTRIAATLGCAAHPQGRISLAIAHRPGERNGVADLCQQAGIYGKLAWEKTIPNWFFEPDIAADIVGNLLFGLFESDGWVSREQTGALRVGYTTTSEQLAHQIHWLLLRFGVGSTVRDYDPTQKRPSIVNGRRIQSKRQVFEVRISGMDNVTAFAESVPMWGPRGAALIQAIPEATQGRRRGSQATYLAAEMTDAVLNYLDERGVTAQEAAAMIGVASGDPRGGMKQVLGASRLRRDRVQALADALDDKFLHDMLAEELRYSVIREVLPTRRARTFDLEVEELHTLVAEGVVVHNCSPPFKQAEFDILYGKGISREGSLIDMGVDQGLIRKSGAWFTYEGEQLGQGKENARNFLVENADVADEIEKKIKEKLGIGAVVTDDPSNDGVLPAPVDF

Records with an inconclusive call do not appear.

In this experiment the target is Protein RecA (Mycobacterium tuberculosis (strain ATCC 25618 / H37Rv)) (UniProt P9WHJ3). The experiment is described as follows: RecA intein splicing inhibitors, Mycobacterium tuberculosis, cell free fluorescence, confirmatory dose response (AID 435010).

For the compound `Clc1ccc(COC(Cn2ccnc2)c2ccc(Cl)cc2Cl)c(Cl)c1` (configuration not stated), the EC50 (as a rule, the concentration giving half of the maximal effect) was 9.63 µM.

In the case of `Clc1ccc(COC(Cn2ccnc2)c2ccc(Cl)cc2Cl)cc1` (configuration not stated), the EC50 is 10.2 µM.
